ChEMBL document CHEMBL1145842, “A selective human H(4)-receptor agonist: (-)-2-cyano-1-methyl-3-[(2R,5R)-5- [1H-imidazol-4(5)-yl]tetrahydrofuran-2-y] methylguanidine” (J Med Chem, 2003)

The chains behind the UniProt entries cited, without tags or fusion partners. Where a name states a change or a piece, a line headed by the entry shows the natural chain unless it says otherwise.
UniProt Q9Y5N1: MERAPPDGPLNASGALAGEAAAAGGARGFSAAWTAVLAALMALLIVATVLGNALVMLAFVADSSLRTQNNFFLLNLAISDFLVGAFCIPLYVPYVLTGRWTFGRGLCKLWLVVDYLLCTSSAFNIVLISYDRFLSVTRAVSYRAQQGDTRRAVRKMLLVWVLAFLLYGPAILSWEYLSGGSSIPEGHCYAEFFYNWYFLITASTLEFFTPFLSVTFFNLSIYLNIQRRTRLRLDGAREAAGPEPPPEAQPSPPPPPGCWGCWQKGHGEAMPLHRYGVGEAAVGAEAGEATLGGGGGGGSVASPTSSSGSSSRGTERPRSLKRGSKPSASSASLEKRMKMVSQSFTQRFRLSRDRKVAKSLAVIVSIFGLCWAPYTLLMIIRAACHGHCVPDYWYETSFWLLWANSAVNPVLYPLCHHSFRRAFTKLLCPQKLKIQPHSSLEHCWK

Legend:
Histamine H3 receptor [1] = biological target: T1, Histamine H3 receptor (Homo sapiens, UniProt Q9Y5N1); assay: Histamine H3 receptor competition binding using [3H]Na-methylhistamine
Procedure, shortened: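 Homogenates of SK-N-MC cells stably expressing human H3 receptor, in 50 mM Na2HPO4 pH 7.4, incubated 1 h at 37 °C with 1.0 nM [3H]Nα-methylhistamine with or without competitor. Filtration through GF/C filters pretreated with 0.3% polyethylenimine, three washes with ice-cold 25 mM Tris-HCl, 145 mM NaCl pH 7.4, then scintillation counting.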

Histamine H3 receptor [2] = biological target: T1, Histamine H3 receptor; assay: Inhibition of the forskolin-stimulated cAMP production in SK-N-MC cells expressing human Histamine H3 receptor; type: functional, cell-based

Question: For `C/N=C(\NC#N)NC[C@@H]1CC[C@@H](c2c[nH]cn2)O1`, which Ki (Histamine H3 receptor [1]) is on record?
Answer: 18.6 µM

Question: And the EC50 (Histamine H3 receptor [2])?
Answer: > 100 µM

Question: For `C/N=C(\NC#N)NC[C@H]1CC[C@H](c2c[nH]cn2)O1`, which Ki (Histamine H3 receptor [1]) is on record?
Answer: 2.19 µM

Question: And the EC50 (Histamine H3 receptor [2])?
Answer: 3.16 µM

Question: `C/N=C(\NC#N)NC[C@@H]1CC[C@H](c2c[nH]cn2)O1` (single isomer, unassigned) was tested. Which Ki (Histamine H3 receptor [1]) did it give?
Answer: 7.08 µM

Question: What about the EC50 (Histamine H3 receptor [2]) of the same compound?
Answer: 10.2 µM

Question: How did the Ki (Histamine H3 receptor [1]) turn out when `C/N=C(\NC#N)NC[C@H]1CC[C@@H](c2c[nH]cn2)O1` (single isomer, unassigned) was run?
Answer: 8.13 µM
